Patent publication US10166199B2, “Transdermal patch comprising a ropivacaine formulation” (BUZZZ PHARMACEUTICALS LIMITED, priority 2013, dated 2019)
Read-outs that look alike come from different tables or passages of the source.

Test: Approximate ropivacaine solubility in excipients, assessed visually
Assay type: physicochemical

With “glycerol monocaprylate/caprate [Capmul-MCM-EP]” the “% Solubility (ropivacaine in candidate excipient)” value (from here on “% Solubility”) was 4.5-5.1 % w/v.

With “mono/diglycerides capric acid [Capmul-MCM-C8-EP]” the “% Solubility” value was 5.5-6.0 % w/v.

In the case of sorbitan trioleate [Span 85], the “% Solubility” value (solubility of ropivacaine in the named excipient, gradual addition at room temperature, visual) is reported as 3.1-3.9 % w/v.
